# Reference: patent US12171806B2, “Therapeutic regimens and methods for lowering blood glucose and/or body weight using GLP-1R and GCGR balanced agonists” (priority 2021, dated 2024)
# Entries after “also recorded” stand apart in the source; their conditions may differ.
# Assay: Phase 1 MAD study of ALT-801: adverse events (TEAEs), safety overview
# [1] = 1.2 mg and 1.8 mg, 6-week interim
smiles,measurement,setting,value
"CC[C@H](C)[C@H](NC(=O)[C@H](Cc1ccccc1)NC(=O)[C@H](CCC(=O)O)NC(=O)[C@@H]1CCCCNC(=O)CC[C@H](NC(=O)[C@H](CC(=O)O)NC(=O)[C@H](CC(C)C)NC(=O)[C@H](Cc2ccc(O)cc2)NC(=O)[C@H](CCCCN)NC(=O)[C@H](CO)NC(=O)[C@H](Cc2ccc(O)cc2)NC(=O)[C@H](CC(=O)O)NC(=O)[C@H](CO)NC(=O)[C@@H](NC(=O)[C@H](Cc2ccccc2)NC(=O)[C@@H](NC(=O)CNC(=O)[C@H](CCC(N)=O)NC(=O)C(C)(C)NC(=O)[C@@H](N)Cc2c[nH]cn2)[C@@H](C)O)[C@@H](C)O)C(=O)N[C@@H](CCCCNC(=O)[C@H]2O[C@@H](OCCCCCCCCCCCCCCCCCC(=O)O)[C@H](O)[C@@H](O)[C@@H]2O)C(=O)N[C@@H](C)C(=O)N[C@@H](C)C(=O)N1)C(=O)N[C@@H](CCC(N)=O)C(=O)N[C@@H](Cc1c[nH]c2ccccc12)C(=O)N[C@@H](CC(C)C)C(=O)N[C@@H](CC(C)C)C(=O)N[C@@H](CCC(N)=O)C(=O)N[C@H](C(N)=O)[C@@H](C)O [ALT-801, pemvidutide]","Constipation, Mild, % of subjects",1.2 mg SC once weekly,(0.0%)
same,"Constipation, Moderate, % of subjects",1.2 mg SC once weekly,(0.0%)
same,"Diarrhea, Mild, % of subjects",1.2 mg SC once weekly,(0.0%)
same,"Diarrhea, Moderate, % of subjects",1.2 mg SC once weekly,(0.0%)
same,"Hyperglycemia, % of subjects",1.2 mg SC once weekly,(0.0%)
same,"Nausea, Mild, % of subjects",1.2 mg SC once weekly,(14.3%)
same,"Nausea, Moderate, % of subjects",1.2 mg SC once weekly,(14.3%)
same,"Vomiting, Mild, % of subjects",1.2 mg SC once weekly,(14.3%)
same,"Vomiting, Moderate, % of subjects",1.2 mg SC once weekly,(0.0%)
same,"reports of vomiting, diarrhea or constipation",[1],"no reports of vomiting, diarrhea or constipation"
same,tolerability,[1],well-tolerated without dose titration
same,"Constipation, Mild, % of subjects",1.8 mg SC once weekly,(11.1%)
same,"Constipation, Moderate, % of subjects",1.8 mg SC once weekly,(11.1%)
same,"Diarrhea, Mild, % of subjects",1.8 mg SC once weekly,(0.0%)
same,"Diarrhea, Moderate, % of subjects",1.8 mg SC once weekly,(0.0%)
same,"Hyperglycemia, % of subjects",1.8 mg SC once weekly,(0.0%)
same,"Nausea, Mild, % of subjects",1.8 mg SC once weekly,(55.6%)
same,"Nausea, Moderate, % of subjects",1.8 mg SC once weekly,(11.1%)
same,"Vomiting, Mild, % of subjects",1.8 mg SC once weekly,(11.1%)
same,"Vomiting, Moderate, % of subjects",1.8 mg SC once weekly,(11.1%)
same,severity of nausea events,"1.8 mg, 6-week interim",mild in severity
same,"Constipation, Mild, % of subjects",2.4 mg SC once weekly,(18.2%)
same,"Constipation, Moderate, % of subjects",2.4 mg SC once weekly,(9.1%)
same,"Diarrhea, Mild, % of subjects",2.4 mg SC once weekly,(18.2%)
same,"Diarrhea, Moderate, % of subjects",2.4 mg SC once weekly,(0.0%)
same,"Hyperglycemia, % of subjects",2.4 mg SC once weekly,(0.0%)
same,"Nausea, Mild, % of subjects",2.4 mg SC once weekly,(45.5%)
same,"Nausea, Moderate, % of subjects",2.4 mg SC once weekly,(45.5%)
same,"Vomiting, Mild, % of subjects",2.4 mg SC once weekly,(45.5%)
same,"Vomiting, Moderate, % of subjects",2.4 mg SC once weekly,(27.3%)
same,hyperglycemic AEs,12 weeks,no hyperglycemic AEs
same,severity of Treatment-Emergent Adverse Events,12 weeks,mild to moderate
same,tolerability,"12 weeks, 1.2, 1.8 and 2.4 mg",well-tolerated without the need for dose titration; also recorded: well-tolerated
same,elevated ALT levels,"12 weeks, resolved after a pause in dosing",One patient experienced elevated ALT levels
same,Any TEAE; Mild; %,M1 1.2 mg (N = 7),(14.3%)
same,Any TEAE; Mild; n,M1 1.2 mg (N = 7),1
same,Any TEAE; Moderate; %,M1 1.2 mg (N = 7),(28.6%)
same,Any TEAE; Moderate; n,M1 1.2 mg (N = 7),2
same,Any TEAE; PLT; %,M1 1.2 mg (N = 7),(0.0%)
same,Any TEAE; PLT; n,M1 1.2 mg (N = 7),0
same,Any TEAE; Severe; %,M1 1.2 mg (N = 7),(0.0%)
same,Any TEAE; Severe; n,M1 1.2 mg (N = 7),0
same,TEAE Abdominal discomfort; Mild; %,M1 1.2 mg (N = 7),(0.0%)
same,TEAE Abdominal discomfort; Mild; n,M1 1.2 mg (N = 7),0
same,TEAE Abdominal discomfort; Moderate; %,M1 1.2 mg (N = 7),(0.0%)
same,TEAE Abdominal discomfort; Moderate; n,M1 1.2 mg (N = 7),0
same,TEAE Abdominal discomfort; PLT; %,M1 1.2 mg (N = 7),(0.0%)
same,TEAE Abdominal discomfort; PLT; n,M1 1.2 mg (N = 7),0
same,TEAE Abdominal discomfort; Severe; %,M1 1.2 mg (N = 7),(0.0%)
same,TEAE Abdominal discomfort; Severe; n,M1 1.2 mg (N = 7),0
same,TEAE Abdominal distension; Mild; %,M1 1.2 mg (N = 7),(0.0%)
same,TEAE Abdominal distension; Mild; n,M1 1.2 mg (N = 7),0
same,TEAE Abdominal distension; Moderate; %,M1 1.2 mg (N = 7),(0.0%)
same,TEAE Abdominal distension; Moderate; n,M1 1.2 mg (N = 7),0
same,TEAE Abdominal distension; PLT; %,M1 1.2 mg (N = 7),(0.0%)
same,TEAE Abdominal distension; PLT; n,M1 1.2 mg (N = 7),0
same,TEAE Abdominal distension; Severe; %,M1 1.2 mg (N = 7),(0.0%)
same,TEAE Abdominal distension; Severe; n,M1 1.2 mg (N = 7),0
same,TEAE Abdominal pain; Mild; %,M1 1.2 mg (N = 7),(0.0%)
same,TEAE Abdominal pain; Mild; n,M1 1.2 mg (N = 7),0
same,TEAE Abdominal pain; Moderate; %,M1 1.2 mg (N = 7),(0.0%)
same,TEAE Abdominal pain; Moderate; n,M1 1.2 mg (N = 7),0
same,TEAE Abdominal pain; PLT; %,M1 1.2 mg (N = 7),(0.0%)
same,TEAE Abdominal pain; PLT; n,M1 1.2 mg (N = 7),0
same,TEAE Abdominal pain; Severe; %,M1 1.2 mg (N = 7),(0.0%)
same,TEAE Abdominal pain; Severe; n,M1 1.2 mg (N = 7),0
same,TEAE Anaemia; Mild; %,M1 1.2 mg (N = 7),(0.0%)
same,TEAE Anaemia; Mild; n,M1 1.2 mg (N = 7),0
same,TEAE Anaemia; Moderate; %,M1 1.2 mg (N = 7),(0.0%)
same,TEAE Anaemia; Moderate; n,M1 1.2 mg (N = 7),0
same,TEAE Anaemia; PLT; %,M1 1.2 mg (N = 7),(0.0%)
same,TEAE Anaemia; PLT; n,M1 1.2 mg (N = 7),0
same,TEAE Anaemia; Severe; %,M1 1.2 mg (N = 7),(0.0%)
same,TEAE Anaemia; Severe; n,M1 1.2 mg (N = 7),0
same,TEAE Application site bruise; Mild; %,M1 1.2 mg (N = 7),(0.0%)
same,TEAE Application site bruise; Mild; n,M1 1.2 mg (N = 7),0
same,TEAE Application site bruise; Moderate; %,M1 1.2 mg (N = 7),(0.0%)
same,TEAE Application site bruise; Moderate; n,M1 1.2 mg (N = 7),0
same,TEAE Application site bruise; PLT; %,M1 1.2 mg (N = 7),(0.0%)
same,TEAE Application site bruise; PLT; n,M1 1.2 mg (N = 7),0
same,TEAE Application site bruise; Severe; %,M1 1.2 mg (N = 7),(0.0%)
same,TEAE Application site bruise; Severe; n,M1 1.2 mg (N = 7),0
same,TEAE Application site erythema; Mild; %,M1 1.2 mg (N = 7),(0.0%)
same,TEAE Application site erythema; Mild; n,M1 1.2 mg (N = 7),0
same,TEAE Application site erythema; Moderate; %,M1 1.2 mg (N = 7),(0.0%)
same,TEAE Application site erythema; Moderate; n,M1 1.2 mg (N = 7),0
same,TEAE Application site erythema; PLT; %,M1 1.2 mg (N = 7),(0.0%)
same,TEAE Application site erythema; PLT; n,M1 1.2 mg (N = 7),0
same,TEAE Application site erythema; Severe; %,M1 1.2 mg (N = 7),(0.0%)
